Source: patent publication US9394263B2, “Substituted hetero-azepinones” (priority 2012, dated 2016)

The chains behind the UniProt entries cited, without tags or fusion partners. A line that says so, or that is headed by a name, gives the form on record, which may keep a tag or linker. Residues count along the entry.
UniProt P98170, other isoform, or with tags, fused parts or gaps, stated change not applied: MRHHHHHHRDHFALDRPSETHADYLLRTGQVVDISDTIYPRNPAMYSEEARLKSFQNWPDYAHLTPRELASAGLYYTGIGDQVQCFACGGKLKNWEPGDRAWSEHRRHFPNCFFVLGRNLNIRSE
UniProt P98170, 241-356 with tags or gaps limits assumed: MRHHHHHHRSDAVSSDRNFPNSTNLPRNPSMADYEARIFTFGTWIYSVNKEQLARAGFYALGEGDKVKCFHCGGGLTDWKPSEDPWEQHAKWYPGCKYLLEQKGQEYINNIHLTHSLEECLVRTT

Legend:
BIR2 domain of XIAP = BIR2 domain of XIAP (Homo sapiens (Human), UniProt P98170, C202A/C213G); assay: TR-FRET assay for BIR2: inhibition of binding of XIAP BIR2 domain to Peptide A (SMAC-derived peptide);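 further: percent inhibition measured across a concentration series of each compound, from which the IC50 was derived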
Method: TR-FRET Assay for BIR2 and BIR3
Percentage of inhibition at each concentration was determined to generate an IC50 value for each test compound.

BIR3 domain of XIAP = BIR3 domain of XIAP (Homo sapiens (Human), UniProt P98170); assay: TR-FRET assay for BIR3: inhibition of binding of XIAP BIR3 domain to Peptide A (SMAC-derived peptide)

IC50 (BIR3 domain of XIAP) | SMILES | IC50 (BIR2 domain of XIAP) | IC50 (BIR2 domain of XIAP; read-out: BIR2 IC50)
 | CN[C@@H](C)C(=O)N[C@@H]1C(=O)N(Cc2c(OC(F)F)ccc3ccccc23)c2ccccc2OC12CCOCC2 [Example 85, (S)-N-((S)-5-((2-(Difluoromethoxy)naphthalen-1-yl)methyl)-4-oxo-2′,3′,4,5,5′,6′-hexahydro-3H-spiro[benzo[b][1,4]oxazepine-2,4′-pyran]-3-yl)-2-(methylamino)propanamide hydrochloride] | 410 nM | 
 | CN[C@@H](C)C(=O)N[C@H]1COc2ccccc2N(Cc2ccccc2OC)C1=O [Example 29c] | 5120 nM | 
 | CN[C@@H](C)C(=O)N[C@@H]1C(=O)N(Cc2noc3ccccc23)c2ccccc2OC12CCOCC2 [Example 84, (S)-N-((S)-5-(Benzo[d]isoxazol-3-ylmethyl)-4-oxo-2′,3′,4,5,5′,6′-hexahydro-3H-spiro[benzo[b][1,4]oxazepine-2,4′-pyran]-3-yl)-2-(methylamino)propanamide hydrochloride] | 569 nM | 
 | CN[C@@H](C)C(=O)N[C@H]1COc2ccccc2N(Cc2ccc(Cl)cc2)C1=O [Example 47, (S)-N-((S)-5-(4-Chlorobenzyl)-4-oxo-2,3,4,5-tetrahydrobenzo[b][1,4]oxazepin-3-yl)-2-(methylamino)propanamide] | 6030 nM | 
 | COc1ccc2cc(Br)ccc2c1CN1C(=O)[C@@H](NC(=O)[C@@H](N)[C@@H](C)O)COc2cc(C)ccc21 [Example 37, (2S,3R)-2-Amino-N-[(S)-9-(7-bromo-3-methoxy-naphthalen-2-ylmethyl)-3-methyl-8-oxo-6,7,8,9-tetrahydro-5-oxa-9-aza-benzocyclohepten-7-yl]-3-hydroxy-butyramide trifluoracetate] | 7080 nM | 
 | CN[C@@H](C)C(=O)N[C@H]1COc2ccccc2N(Cc2c(OC)ccc3cc(Br)ccc23)C1=O [Example 29, (S)-N-[(S)-9-(6-Bromo-2-methoxy-naphthalen-1-ylmethyl)-8-oxo-6,7,8,9-tetrahydro-5-oxa-9-aza-benzocyclohepten-7-yl]-2-methylamino-propionamide trifluoroacetate] | 101 nM | 
 | CN[C@@H](C)C(=O)N[C@H]1COc2ccccc2N(Cc2c(C)ccc3ccccc23)C1=O [Example 44] | 845 nM | 
 | CN[C@@H](C)C(=O)N[C@H]1C(=O)N(Cc2c(OC(F)F)ccc3ccccc23)c2ccccc2OC12CCOCC2 [Example 86, (S)-N-((R)-5-((2-(Difluoromethoxy)naphthalen-1-yl)methyl)-4-oxo-2′,3′,4,5,5′,6′-hexahydro-3H-spiro[benzo[b][1,4]oxazepine-2,4′-pyran]-3-yl)-2-(methylamino)propanamide hydrochloride] |  | 6410 nM
> 54.8 µM | [2H]C([2H])([2H])C([2H])([2H])N[C@@H](C)C(=O)N[C@H]1COc2ccccc2N(Cc2nn(-c3ccccc3C#N)c3ccccc23)C1=O [Example 70, (S)-N-((S)-5-((1-(2-Cyanophenyl)-1H-indazol-3-yl)methyl)-4-oxo-2,3,4,5-tetrahydrobenzo[b][1,4]oxazepin-3-yl)-2-(ethyl-d5-amino)propanamide] | 183 nM | 
 | CN[C@@H](C)C(=O)N[C@@H]1C(=O)N(Cc2c(C)ccc3ccccc23)c2ccccc2OC12CCOCC2 [Example 1q] | 634 nM | 
 | CN[C@@H](C)C(=O)N[C@H]1COc2ccccc2N(Cc2ccc(Br)c3ccccc23)C1=O [Example 29a] | 676 nM | 
 | CN[C@@H](C)C(=O)N[C@H]1COc2ccccc2N(Cc2ccccc2Cl)C1=O [Example 45] | 5610 nM | 
 | COc1ccc2cc(Br)ccc2c1CN1C(=O)[C@@H](NC(=O)[C@@H](N)[C@H](C)O)COc2cc(C)ccc21 [Example 38, (2S,3S)-2-Amino-N-[(S)-9-(7-bromo-3-methoxy-naphthalen-2-ylmethyl)-3-methyl-8-oxo-6,7,8,9-tetrahydro-5-oxa-9-azabenzocyclohepten-7-yl]-3-hydroxy-butyramide trifluoroacetate] | 77 nM | 

Structures can show the parent of a compound that is named as a salt. Where two headings read alike, the source gives them in different places.
